The target of the assay is T1, Myeloperoxidase (Homo sapiens) (UniProt P05164).
T1 sequence (whole entry): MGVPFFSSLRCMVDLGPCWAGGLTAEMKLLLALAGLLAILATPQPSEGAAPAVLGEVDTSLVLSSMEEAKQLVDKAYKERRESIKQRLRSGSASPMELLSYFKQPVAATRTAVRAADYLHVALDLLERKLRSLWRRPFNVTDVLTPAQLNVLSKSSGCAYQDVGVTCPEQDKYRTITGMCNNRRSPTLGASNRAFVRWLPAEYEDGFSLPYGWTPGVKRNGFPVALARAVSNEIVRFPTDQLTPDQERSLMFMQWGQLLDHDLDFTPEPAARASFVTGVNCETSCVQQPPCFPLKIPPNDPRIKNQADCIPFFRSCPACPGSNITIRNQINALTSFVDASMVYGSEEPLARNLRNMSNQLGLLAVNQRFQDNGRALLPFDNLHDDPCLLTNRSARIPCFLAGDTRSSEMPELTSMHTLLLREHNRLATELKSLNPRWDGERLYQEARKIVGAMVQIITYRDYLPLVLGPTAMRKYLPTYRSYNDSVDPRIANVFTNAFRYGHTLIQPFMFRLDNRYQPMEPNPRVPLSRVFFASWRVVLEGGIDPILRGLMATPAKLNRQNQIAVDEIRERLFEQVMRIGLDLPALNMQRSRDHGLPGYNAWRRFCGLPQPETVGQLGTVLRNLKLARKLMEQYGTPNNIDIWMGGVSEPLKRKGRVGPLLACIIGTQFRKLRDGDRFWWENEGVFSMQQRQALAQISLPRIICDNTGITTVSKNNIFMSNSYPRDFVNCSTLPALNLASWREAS
Briefly: Inhibition of human MPO. On the set-up: concentration or dose not given beside the values. The conditions noted are these: concentration not given here.

The inhibition is the relative decrease from the control value, in per cent. In the case of `NNc1ccc([N+](=O)[O-])cc1[N+](=O)[O-]`, the inhibition is 61%.

Source of the values: ChEMBL document CHEMBL3875231, “From Dynamic Combinatorial Chemistry to in Vivo Evaluation of Reversible and Irreversible Myeloperoxidase Inhibitors” (ACS Med Chem Lett, 2017).
